PubChem BioAssay AID430 (Sanford-Burnham Center for Chemical Genomics, 2006)
Only a part is listed here, and it is no random draw. Potency and affinity values are given separately. Active and inactive are the calls of the source. No stated cut-off is given here; in the data, active means cytotoxicity above about 50%; inactive means the rest.

assay: HPDE-C7 pancreatic duct cell viability loss – fluorescence, HTS (AID 430); conditions: HPDE-C7 pancreatic duct cells viability, at 10 µM, stronger effect = higher value;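 further: cells exposed to compound for 48 hours before viability readout; 0% = vehicle and 100% = reference cytotoxic drug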

| Structure (SMILES) | cytotoxicity |
| --- | --- |
| CN(C)CCOC(=O)C(O)(c1ccccc1)C1CCCCC1 (stereo not drawn) | inactive: -2.5% |
| Cc1ccccc1NP(C)(=O)Nc1ccccc1C | inactive: -13.1% |
| CP(=O)(Nc1ccc2c(c1)OCCO2)Oc1ccccc1 (stereo not drawn) | inactive: 7.7% |
| CCOP(C)(=S)SCC(=O)NC(C)(CC)C(=O)O (stereo not drawn) | inactive: -16.3% |
| CP(=O)(Nc1ccccc1F)Oc1ccccc1 (stereo not drawn) | inactive: -7.9% |
| Cc1nc2ccc3ccccc3c2o1.O=[N+]([O-])c1cc([N+](=O)[O-])c(O)c([N+](=O)[O-])c1 | inactive: 5.1% |
| COc1ccccc1OP(C)(=O)Nc1ccc(C)c(C)c1 (stereo not drawn) | inactive: -1.5% |
| CP(=O)(Nc1ccccn1)Oc1ccccc1 (stereo not drawn) | inactive: 8.5% |
| COc1ccccc1OP(C)(=O)Nc1c(C)n(C)n(-c2ccccc2)c1=O (stereo not drawn) | inactive: -11.2% |
| CP(=O)(Oc1ccccc1)N1CCOC1=O (stereo not drawn) | inactive: 3.5% |
| CCN(CC)CC(O)COC(=O)C(O)(c1ccccc1)C1CCCCC1 (stereo not drawn) | inactive: 17.1% |
| CP(=S)(Nn1cnnc1)Oc1ccccc1 (stereo not drawn) | inactive: 0.7% |
| CCOP(C)(=S)SCC(=O)NC(C)C(=O)O (stereo not drawn) | inactive: -18.2% |
| CP(=O)(NC(=O)Nc1ccccc1)Oc1ccccc1 (stereo not drawn) | inactive: -9.2% |
| Cc1ccc(NP(C)(=O)Oc2ccccc2)c(C)c1 (stereo not drawn) | inactive: -9.5% |
| COc1ccccc1OP(C)(=O)Nc1ccc(C)cc1 (stereo not drawn) | inactive: 0.6% |
| Cc1ccc(C)c(NP(C)(=O)Oc2ccccc2)c1 (stereo not drawn) | inactive: 5.2% |
| Cc1nc2ccc3ccccc3c2s1.O=[N+]([O-])c1cc([N+](=O)[O-])c(O)c([N+](=O)[O-])c1 | inactive: -10.5% |
